These are literature values, as cited in publication PMC4762448 (Journal of biomolecular screening, 2011).

Amino acid sequences for entries named in this document (tags omitted). Residues count along the entry.
UniProt P58154, 20-229 limits assumed: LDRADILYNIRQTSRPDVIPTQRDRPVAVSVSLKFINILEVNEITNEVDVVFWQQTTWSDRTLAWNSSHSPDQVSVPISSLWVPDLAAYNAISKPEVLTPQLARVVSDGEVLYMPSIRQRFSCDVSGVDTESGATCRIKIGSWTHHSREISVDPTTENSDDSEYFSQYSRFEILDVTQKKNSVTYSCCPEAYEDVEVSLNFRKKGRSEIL

This data set addresses Ls-AChBP (Lymnaea stagnalis, UniProt P58154). To be noted: cited from earlier work.

Regarding `CN1CCC[C@H]1c1cccnc1` [nicotine], the equilibrium dissociation constant (Kd) is 42.5 nM.

For orientation: Kd means a measure of binding affinity in units of concentration.
